Reference: publication PMC4786016 (Environmental science & technology, 2015)

Sequences of proteins named here, by UniProt entry; tags and fusion partners are left off. A change or cut given only in a name is not applied to a line headed by its entry.
UniProt P37231: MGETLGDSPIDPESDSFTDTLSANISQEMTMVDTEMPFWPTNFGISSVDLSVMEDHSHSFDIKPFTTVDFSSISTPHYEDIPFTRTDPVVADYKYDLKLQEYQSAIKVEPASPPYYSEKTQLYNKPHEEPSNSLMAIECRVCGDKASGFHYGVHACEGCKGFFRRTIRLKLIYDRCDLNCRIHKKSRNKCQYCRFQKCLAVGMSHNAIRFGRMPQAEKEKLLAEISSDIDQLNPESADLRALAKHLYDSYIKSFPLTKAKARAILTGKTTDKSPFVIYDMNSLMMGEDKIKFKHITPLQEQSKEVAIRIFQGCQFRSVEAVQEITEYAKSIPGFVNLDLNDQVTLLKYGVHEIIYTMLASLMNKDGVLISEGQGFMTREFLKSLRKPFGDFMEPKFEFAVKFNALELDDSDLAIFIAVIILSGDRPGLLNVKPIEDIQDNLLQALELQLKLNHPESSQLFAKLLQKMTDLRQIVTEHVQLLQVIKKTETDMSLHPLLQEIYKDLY

Biological target: human PPARγ1 (Homo sapiens, UniProt P37231)
Experiment: GeneBLAzer PPARγ1 non-DA reporter gene assay

## c1ccc(OP(Oc2ccccc2)Oc2ccccc2)cc1 [TPPi, triphenyl phosphite]
  ATVmax: maximal activation% of the tested compounds relative to rosiglitazone: 12%
  [ATVmax]: concentration of the tested compounds to induce the maximal activation%: 11 µM
  efficacy (qualitative, based on ATVmax): + (key: + 7–20%; ++ 20–30%; +++ 30–40%; ++++ 40–50%; +++++ >50%)
